Results as given in ChEMBL document CHEMBL3108731, “A development of chimeric VEGFR2 TK inhibitor based on two ligand conformers from PDB: 1Y6A complex--medicinal chemistry consequences of a TKs analysis” (Eur J Med Chem, 2014).

By UniProt entry, the sequences of proteins in these tests, tags left out.
UniProt P35968, whole entry: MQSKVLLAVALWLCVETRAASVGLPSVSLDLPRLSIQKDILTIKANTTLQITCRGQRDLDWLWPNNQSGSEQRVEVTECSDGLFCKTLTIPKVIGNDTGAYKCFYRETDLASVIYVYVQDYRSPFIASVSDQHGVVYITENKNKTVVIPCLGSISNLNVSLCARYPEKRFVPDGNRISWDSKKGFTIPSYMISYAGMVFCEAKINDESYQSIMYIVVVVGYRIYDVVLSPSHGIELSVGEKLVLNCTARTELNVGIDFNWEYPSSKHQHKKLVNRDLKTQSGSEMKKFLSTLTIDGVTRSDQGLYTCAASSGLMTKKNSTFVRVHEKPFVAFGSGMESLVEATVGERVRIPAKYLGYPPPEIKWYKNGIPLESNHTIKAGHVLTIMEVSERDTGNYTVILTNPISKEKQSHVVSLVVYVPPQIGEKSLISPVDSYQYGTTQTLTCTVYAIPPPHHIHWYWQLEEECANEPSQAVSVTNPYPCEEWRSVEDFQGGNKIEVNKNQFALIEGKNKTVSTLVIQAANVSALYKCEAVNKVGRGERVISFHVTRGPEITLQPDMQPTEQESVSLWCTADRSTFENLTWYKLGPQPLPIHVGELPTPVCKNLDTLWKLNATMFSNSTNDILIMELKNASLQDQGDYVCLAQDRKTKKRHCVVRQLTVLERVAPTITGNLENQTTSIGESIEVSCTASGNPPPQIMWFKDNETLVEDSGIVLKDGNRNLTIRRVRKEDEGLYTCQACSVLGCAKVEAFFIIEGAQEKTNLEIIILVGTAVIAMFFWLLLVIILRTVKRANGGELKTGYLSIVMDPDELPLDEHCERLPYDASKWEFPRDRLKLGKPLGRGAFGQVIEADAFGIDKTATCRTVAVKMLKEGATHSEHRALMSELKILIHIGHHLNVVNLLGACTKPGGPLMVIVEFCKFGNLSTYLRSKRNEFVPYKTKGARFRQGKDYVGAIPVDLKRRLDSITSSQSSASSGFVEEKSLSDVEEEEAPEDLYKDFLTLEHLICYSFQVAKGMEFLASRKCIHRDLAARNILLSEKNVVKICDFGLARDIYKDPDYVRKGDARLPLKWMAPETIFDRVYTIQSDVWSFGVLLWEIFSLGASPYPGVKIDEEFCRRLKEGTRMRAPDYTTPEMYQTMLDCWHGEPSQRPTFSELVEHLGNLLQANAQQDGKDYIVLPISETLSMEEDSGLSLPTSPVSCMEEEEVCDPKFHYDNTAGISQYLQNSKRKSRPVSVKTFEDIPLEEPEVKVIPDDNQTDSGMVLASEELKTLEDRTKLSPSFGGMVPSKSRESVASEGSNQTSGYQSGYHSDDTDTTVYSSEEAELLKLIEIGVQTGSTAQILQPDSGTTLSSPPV

Target: Vascular endothelial growth factor receptor 2 (Homo sapiens, UniProt P35968)
Experiment: Inhibition of GST-tagged recombinant human VEGFR2 expressed in Sf9 cells by radiometric assay
Type: cell-based

**Q.** How did the IC50 turn out when `CCS(=O)(=O)c1ccc(OC)c(Nc2ncc(-c3cccc(-c4ccccn4)c3)o2)c1` was run?
**A.** 17.1 nM
